The text below walks through data of publication PMC9271465 (ESMO Open, 2022).

Chains of the proteins cited; added tags and fusions are not shown. Residues count along the entry.
UniProt P00533, 25-1210 T790M: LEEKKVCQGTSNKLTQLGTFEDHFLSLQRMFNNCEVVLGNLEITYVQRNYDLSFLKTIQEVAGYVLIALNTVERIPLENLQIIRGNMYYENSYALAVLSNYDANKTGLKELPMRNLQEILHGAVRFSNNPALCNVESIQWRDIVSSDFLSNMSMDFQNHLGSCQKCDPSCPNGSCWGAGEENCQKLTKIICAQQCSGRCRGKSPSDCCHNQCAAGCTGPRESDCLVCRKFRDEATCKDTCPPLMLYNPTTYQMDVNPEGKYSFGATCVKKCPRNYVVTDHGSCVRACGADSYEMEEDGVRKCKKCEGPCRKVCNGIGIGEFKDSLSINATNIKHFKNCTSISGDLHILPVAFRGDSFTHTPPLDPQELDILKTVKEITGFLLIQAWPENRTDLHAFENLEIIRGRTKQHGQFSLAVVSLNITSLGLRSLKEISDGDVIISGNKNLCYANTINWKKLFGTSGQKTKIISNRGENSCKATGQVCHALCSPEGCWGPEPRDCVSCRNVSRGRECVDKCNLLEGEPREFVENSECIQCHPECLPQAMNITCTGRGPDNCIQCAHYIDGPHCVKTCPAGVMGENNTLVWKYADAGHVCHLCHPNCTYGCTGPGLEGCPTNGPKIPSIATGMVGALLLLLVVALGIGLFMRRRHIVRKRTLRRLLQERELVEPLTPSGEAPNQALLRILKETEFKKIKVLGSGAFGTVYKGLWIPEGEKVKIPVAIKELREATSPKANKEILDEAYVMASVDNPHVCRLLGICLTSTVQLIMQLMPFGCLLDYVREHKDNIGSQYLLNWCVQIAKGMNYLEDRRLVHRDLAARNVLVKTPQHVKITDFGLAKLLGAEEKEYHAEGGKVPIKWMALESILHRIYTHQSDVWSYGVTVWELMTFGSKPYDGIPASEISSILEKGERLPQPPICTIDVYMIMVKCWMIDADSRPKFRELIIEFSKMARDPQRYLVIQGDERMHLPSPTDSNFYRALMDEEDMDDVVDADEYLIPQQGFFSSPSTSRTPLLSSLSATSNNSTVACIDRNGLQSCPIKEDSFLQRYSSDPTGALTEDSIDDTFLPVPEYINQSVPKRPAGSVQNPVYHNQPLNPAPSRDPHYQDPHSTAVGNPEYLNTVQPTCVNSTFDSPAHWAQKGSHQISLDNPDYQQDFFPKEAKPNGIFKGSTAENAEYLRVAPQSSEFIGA

For one test, the target named is EGFR T790M (Homo sapiens, UniProt P00533, T790M). Briefly: kinase inhibition, EGFR T790M. Particulars: read-out: IC50 against EGFR T790M; kinase level; unpublished data. The format is biochemical.
The test system of another test is EGFR-mutated NSCLC. The settings on record: cited from earlier work.

For `C=CC(=O)Nc1cc(Nc2ncc(Cl)c(Nc3ccccc3C(=O)C(=O)N(C)C)n2)c(OC)cc1N1CCN(C)CC1` [BPI-15086], the IC50 at EGFR T790M was 15.7 nM.

`COc1cc2ncnc(Nc3ccc(F)c(Cl)c3)c2cc1OCCCN1CCOCC1` [gefitinib]: in the test with EGFR-mutated NSCLC, the “median overall survival (OS)” value is 19.3-30.5 months and the “median progression-free survival (PFS)” value was 9.7-10.8 months.

The IC50 is the midpoint of a concentration-inhibition curve.
